According to publication PMC2838185 (Chemical biology & drug design, 2009):

Target: T1, C. glabrata DHFR (CgDHFR) (Candida glabrata, UniProt Q6FPH0)
T1 sequence (Q6FPH0 1-217): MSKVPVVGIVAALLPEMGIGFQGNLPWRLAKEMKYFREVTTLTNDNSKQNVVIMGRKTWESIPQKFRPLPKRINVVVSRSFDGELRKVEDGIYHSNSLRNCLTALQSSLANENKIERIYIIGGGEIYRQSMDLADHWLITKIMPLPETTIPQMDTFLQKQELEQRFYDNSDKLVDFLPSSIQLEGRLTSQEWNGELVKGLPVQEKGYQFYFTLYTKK
Type: biochemical
Settings: Table 1; human DHFR over CgDHFR

How did the “Selectivity, IC50 (h)/IC50 (Cg)” value turn out when `COc1ccc(-c2cc(OC)cc(C(C)C#Cc3c(C)nc(N)nc3N)c2)cc1` (stereo not shown) [Compound 25, 2,4-diamino-5-[3-(3-methoxy-5-(4-methoxyphenyl)phenyl)but-1-ynyl]-6-methylpyrimidine] was run?
The value was 28.
